Measurements: publication PMC8713283 (Journal of Medicinal Chemistry, 2021)

Experiments:
[1] = Log D(dec/w) shake flask partition coefficient; assay type: physicochemical; details: 1,9-decadiene/PBS; 1,9-decadiene and PBS pH 7.4 shake flask partition coefficient
[2] = LPEester – LPEamide by amide–ester matched pairs
P-gp (human MDR1) = assay: in vitro; details: dog, MDCK-MDR1

Question: With `Cc1ncsc1-c1ccc(CNC(=O)[C@@H]2C[C@@H](O)CN2C(=O)[C@@H](NC(=O)CCCCCOC(=O)Cc2ccccc2)C(C)(C)C)cc1` [Compound 10, 6-(((S)-1-((2S,4R)-4-Hydroxy-2-((4-(4-methylthiazol-5-yl)benzyl)carbamoyl)pyrrolidin-1-yl)-3,3-dimethyl-1-oxobutan-2-yl)amino)-6-oxohexyl 2-phenylacetate] as the compound, how does the logD hydrocarbon water [1] read?
Answer: 0.8

Question: What about the ΔLPE [2] of the same compound?
Answer: 1.6

Question: And the Papp A→B at 5 µM (P-gp (human MDR1))?
Answer: 0.9 ×10⁻⁶ cm/s

Question: And the Papp B→A at 5 µM (P-gp (human MDR1))?
Answer: 42.2 ×10⁻⁶ cm/s

Question: What about the “PAMPA Pe” value of the same compound?
Answer: 6.5 ×10^–6 cm/s

Question: What does the source list for `Cc1ncsc1-c1ccc(CNC(=O)[C@@H]2C[C@@H](O)CN2C(=O)[C@@H](NC(=O)CCOCCOC(=O)Cc2ccccc2)C(C)(C)C)cc1` [Compound 18, 2-(3-(((S)-1-((2S,4R)-4-Hydroxy-2-((4-(4-methylthiazol-5-yl)benzyl)carbamoyl)pyrrolidin-1-yl)-3,3-dimethyl-1-oxobutan-2-yl)amino)-3-oxopropoxy)ethyl 2-phenylacetate]?
Answer: logD hydrocarbon water [1]: -0.2; ΔLPE [2]: 0.5; Papp A→B at 5 µM (P-gp (human MDR1)): 0.6 ×10⁻⁶ cm/s; Papp B→A at 5 µM (P-gp (human MDR1)): 39.1 ×10⁻⁶ cm/s

Question: What does the source list for `Cc1ncsc1-c1ccc(CNC(=O)[C@@H]2C[C@@H](O)CN2C(=O)[C@@H](NC(=O)CCOCCOCCOC(=O)Cc2ccccc2)C(C)(C)C)cc1` [Compound 19, 2-(2-(3-(((S)-1-((2S,4R)-4-Hydroxy-2-((4-(4-methylthiazol-5-yl)benzyl)carbamoyl)pyrrolidin-1-yl)-3,3-dimethyl-1-oxobutan-2-yl)amino)-3-oxopropoxy)ethoxy)ethyl 2-phenylacetate]?
Answer: logD hydrocarbon water [1]: -0.5; ΔLPE [2]: 1.1; Papp B→A at 5 µM (P-gp (human MDR1)): 23.7 ×10⁻⁶ cm/s

Question: For `Cc1ncsc1-c1ccc(CNC(=O)[C@@H]2C[C@@H](O)CN2C(=O)[C@@H](NC(=O)CCOCCOCCOCCOC(=O)Cc2ccccc2)C(C)(C)C)cc1` [Compound 20, (S)-14-((2S,4R)-4-Hydroxy-2-((4-(4-methylthiazol-5-yl)benzyl)carbamoyl)pyrrolidine-1-carbonyl)-15,15-dimethyl-12-oxo-3,6,9-trioxa-13-azahexadecyl 2-phenylacetate], which logD hydrocarbon water [1] is on record?
Answer: -0.7

Question: And the ΔLPE [2]?
Answer: 0.5

Question: And the Papp A→B at 5 µM (P-gp (human MDR1))?
Answer: 1 ×10⁻⁶ cm/s

Question: And the Papp B→A at 5 µM (P-gp (human MDR1))?
Answer: 18.3 ×10⁻⁶ cm/s
